RAD54 inh: inhibitors of human RAD54 branch migration; inhibition, % at 10.4 µM; 360,000 compounds, 0.14% hits; RAD54 Holliday junction branch migration, FAM/BHQ fluorescence; Q92698; AID 602329;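 active = mean normalized replicate activity at least 40 and at least half of replicates scoring 40 or more; inconclusive = only one of the two criteria met; inactive = mean below 40 and under half of replicates reaching 40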;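 note: 0% = median of neutral control wells and 100% = median of positive control wells; inhibitors cause a drop in the FAM fluorescence signal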
RAD52 inh: blocks human RAD52 DNA annealing | P43351 | recombinant RAD52 DNA annealing, FRET fluorescence | inhibition, % at 18.7 µM | 360,000 compounds, 0.46% hits | AID 651710;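 active = every replicate showing at least 50% inhibition; inconclusive = mean inhibition at least 50% but not in every replicate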
SIRT5 inh: blocks human SIRT5 desuccinylation of peptide; Q9NXA8; Purified SirT5, succinyl-peptide AMC, trypsin-coupled fluorescence; inhibition, % at 15 µM; 330,000 compounds, 1.1% hits; in the data active = inhibition above about 15%; inconclusive = no clear call, values can overlap the other calls
AF4-AF9 inh: inhibitors of human MLL-AF4/AF9 interaction | P42568 | AlphaScreen, biotin-AF4 peptide binding to FLAG-AF9 | 350,000 compounds, 0.47% hits | inhibition, % at 10 µM | AID 651704;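 active = every replicate reaching a set inhibition limit, whatever the replicate mean, cut at about 25% in these data; inconclusive = mean inhibition reaches that limit but some replicates miss it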;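 note: 0% = plate neutral control median and 100% = total signal loss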
UUG fidelity: alters start codon recognition fidelity in yeast; S. cerevisiae UUG-firefly luciferase reporter, luminescence/redox ratio; activity score, % at 18.7 µM; actives 0.13% (n = 350,000); AID 602363;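 active = replicate mean at a twofold rise or more, about +100% in these data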;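 also: firefly luciferase made from a UUG start codon reports start codon fidelity; reporter light over untreated wells divided by growth signal over untreated wells; some hits fall short of that in this replicate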
E-sel inducer: induces E-selectin expression in human endothelial cells; P16581; HUVEC E-selectin immunofluorescence imaging; normalized: neutral wells 0, TNF-alpha wells 100; activation, % at 7.58 µM; 260,000 compounds, 0.37% hits;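 active = mean E-selectin-positive cell signal at least 10% of the positive control, reached in at least 60% of replicates, without over 20% cell loss; inconclusive = no rule given, readout overlaps actives, possibly toxicity-flagged; inactive = the rest, including those meeting only one limit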
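Material: HUVEC primary endothelial cells; Amount: 3,000 cells per well; Dosing: single concentration; Medium: EGM-2 growth medium on 0.1% gelatin-coated wells; Read-out basis: percent E-selectin-positive cells; Signal: immunofluorescence imaging; Control set: TNF-alpha, DMSO.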
DNA binding: DNA binding artifact in Rad54 counter-screen; shares compounds with RAD54 inh; Acridine orange-DNA displacement, fluorescence polarization, 20 min; AC50, µM (doses to about 35 µM), without a hit: top-dose activity change, negative = DNA binding; 460 compounds, 8% hits;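 active = signal drop giving an AC50 within twice the top valid tested concentration of each sample, actives reach about 35 µM in these data; inactive = activity opposite to expected, plus the rest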;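 note: polarization loss reports compound binding to salmon sperm DNA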
Numbers without * were called inactive; i = inactive; ? = inconclusive; / = no result given. Shown are actives, neighbours in structure and some others; about 1.8% of the full set was active somewhere.

Screens by letter: A = RAD54 inh; B = RAD52 inh; C = SIRT5 inh; D = AF4-AF9 inh; E = UUG fidelity; F = E-sel inducer; G = DNA binding
SMILES: CCNC1CCC(Nc2ccnc3cc(Cl)ccc23)CC1 (stereo unspecified)
  A: 54.7*; B: 12.8; C: /; D: -9.8; E: -6.2; F: 0.0; G: -2.2%
SMILES: O=C(C[C@H]1C=C[C@H](NC(=O)c2ccc(F)cc2)[C@@H](CO)O1)NCc1ccncn1
  A: -16.5; B: -2.5; C: 0.6; D: -6.3; E: -23.3; F: 0.1; G: /
SMILES: COCCCNC(=O)c1cc2c(=O)n(C)c3ccccc3c2n1C
  A: 13.9; B: -21.0; C: /; D: 1.0; E: -7.8; F: /; G: /
SMILES: CCN(CC)CCNC(=O)c1cc2c(=O)n(C)c3ccccc3c2n1C
  A: 60.8*; B: 38.6; C: /; D: -1.6; E: -9.4; F: -0.1; G: -11.9%
SMILES: CCCN(CCC)CCCNC(=O)c1cc2c(=O)n(C)c3ccccc3c2n1C
  A: ?; B: 16.3; C: /; D: -0.8; E: -27.4; F: -0.3; G: -10.7%
SMILES: COCCNC(=O)c1cc2c(=O)n(C)c3ccccc3c2n1C
  A: -4.9; B: -12.6; C: -3.2; D: -2.4; E: -5.0; F: 0.1; G: /
SMILES: CN(C)CCNC(=O)c1cc2c(=O)n(C)c3ccccc3c2n1C
  A: 77.7*; B: 41.8; C: /; D: -2.5; E: -4.6; F: /; G: i
SMILES: CCN(CC)CCCNC(=O)c1cc2c(=O)n(C)c3ccccc3c2n1C
  A: 71.7*; B: 18.1; C: /; D: 2.5; E: -19.6; F: 0.0; G: -22.1%
SMILES: COc1ccccc1-c1ccc2c(c1)[C@H]1[C@H](CCN1S(=O)(=O)c1cn(C)cn1)[C@@H](CO)N2
  A: 11.5; B: -18.5; C: 12.2; D: 3.3; E: -3.3; F: -0.7; G: /
SMILES: Cc1noc(C)c1NC(=O)N(C)C[C@@H]1Oc2c(NS(=O)(=O)c3cccs3)cccc2C(=O)N([C@@H](C)CO)C[C@H]1C
  A: 3.5; B: -30.1; C: 11.1; D: -3.9; E: 5.9; F: 0.0; G: /
SMILES: CCCCN(CC)CCNC(=O)c1cc2c(=O)n(C)c3ccccc3c2n1C
  A: 56.2*; B: 7.8; C: /; D: 3.9; E: -12.2; F: 0.6; G: -15.9%
SMILES: O=c1c2ccccc2oc2ccc(NCCCn3ccnc3)cc12
  A: -11.3; B: -78.8; C: /; D: 3.4; E: -47.5; F: -0.4; G: /
SMILES: O=c1c2ccccc2sc2ccc(NCCCN3CCOCC3)cc12
  A: 50.8*; B: -7.1; C: /; D: 14.1; E: 1.5; F: 0.5; G: -28.9%
SMILES: CN1CCCC1CCNc1ccc2sc3ccccc3c(=O)c2c1 (stereo unspecified)
  A: 56.3*; B: -1.6; C: /; D: 26.3*; E: -4.9; F: 2.3; G: -16.1%
SMILES: Cc1cc2oc3cc(NCCC4CCCN4C)ccc3c(=O)c2cc1C (stereo unspecified)
  A: 69.4*; B: -261.0; C: /; D: 0.2; E: 4.3; F: /; G: -14.7%
SMILES: C[C@H](CO)N1C[C@H](C)[C@H](CN(C)C(=O)c2cc(-c3ccccc3)on2)OCc2cn(nn2)CCCC1=O
  A: /; B: /; C: /; D: /; E: /; F: 0.5; G: /
SMILES: CNC(=O)C1=C(C)Nc2nc3ccccc3n2C1c1ccc(F)cc1 (stereo unspecified)
  A: 0.3; B: -3.2; C: -2.0; D: -36.6; E: -10.8; F: /; G: /
SMILES: COC(=O)C1=C(C)Nc2nc3ccccc3n2C1c1ccccc1F (stereo unspecified)
  A: ?; B: -14.8; C: 0.2; D: -2.1; E: 1.2; F: 2.8; G: -12.5%
SMILES: COc1ccccc1NC(=O)CNC(=O)c1ccccc1
  A: 51.7*; B: /; C: /; D: /; E: 6.7; F: /; G: -13.6%
SMILES: Cc1ccccc1S(=O)(=O)N1[C@@H](C#N)[C@H](c2ccc(-c3ccccc3)cc2)[C@@H]1CO
  A: 4.3; B: -40.7; C: 1.0; D: -0.1; E: -3.7; F: 21.0; G: /
SMILES: COCCCNCCC(CCC(C)C)c1ccc2c(c1)OCO2 (stereo unspecified)
  A: ?; B: -9.4; C: 1.0; D: 0.8; E: -2.6; F: 4.0; G: 13.3%
SMILES: CCOC(=O)c1[nH]c2cc3c(cc2c1CCCN1C(=O)c2ccccc2C1=O)OCCO3
  A: ?; B: /; C: /; D: /; E: 4.5; F: /; G: 5.5%
SMILES: Cc1cccc(-c2ccc([C@@H]3[C@H](CO)N4CCCCN(S(=O)(=O)c5cccs5)C[C@@H]34)cc2)c1
  A: -4.7; B: -9.4; C: 6.7; D: -5.3; E: -4.6; F: -0.5; G: /
SMILES: COc1ccc2nc(-c3ccc(N)cc3)[nH]c2c1
  A: 77.2*; B: /; C: /; D: /; E: -9.1; F: /; G: -4.9%
SMILES: COc1cc(NCCCNC(C)C)c2nccc(C)c2c1
  A: 83.5*; B: 60.5*; C: -2.0; D: 9.8; E: -7.0; F: /; G: -5.4%
SMILES: COc1cc(NCc2ccccc2)c2ncn(C(C)C)c2c1
  A: -1.1; B: -20.2; C: -0.7; D: -5.8; E: 19.5; F: 0.0; G: /
SMILES: COCC(=O)NC[C@H]1N[C@H](CO)[C@@H]1c1ccc(-c2ccccc2F)cc1
  A: 2.3; B: -23.6; C: 1.5; D: -1.1; E: 3.8; F: 0.1; G: /
SMILES: NC(=O)C1CCN(c2nc(-c3cccc(N)c3)cs2)CC1
  A: 4.1; B: /; C: /; D: /; E: -2.2; F: 0.2; G: /
SMILES: NC(=O)C1CCN(c2nc(-c3cccnc3)cs2)CC1
  A: 59.7*; B: 10.9; C: /; D: -5.1; E: 3.5; F: 0.6; G: 13.6%
SMILES: COC(=O)Nc1nnc(COc2cccc(C)c2)s1
  A: /; B: -24.9; C: -2.1; D: -1.6; E: /; F: /; G: /
SMILES: COC(=O)Nc1nnc(COc2ccccc2)s1
  A: ?; B: 3.8; C: -1.0; D: -2.7; E: -0.7; F: /; G: 2.7%
SMILES: OC1CCCN(Cc2c3ccccc3cc3ccccc23)C1 (stereo unspecified)
  A: 93.1*; B: /; C: /; D: /; E: -11.4; F: /; G: i
SMILES: OC1CCCN(Cc2cccc3ccccc23)C1 (stereo unspecified)
  A: -1.1; B: /; C: /; D: /; E: -1.5; F: /; G: /
SMILES: CCCCN(C)CCNC(=S)Nc1ccc2nc(N3CCN(CC)CC3)cc(C)c2c1
  A: 81.2*; B: 95.3*; C: -6.4; D: 12.7; E: 3.6; F: 0.1; G: 8.7%
SMILES: CCN1CCN(c2cc(C)c3cc(NC(=O)c4cccc(OC)c4)ccc3n2)CC1
  A: 1.9; B: 33.7; C: -0.4; D: 4.9; E: 16.0; F: 0.1; G: /
SMILES: CCN1CCN(c2cc(C)c3cc(NC(=S)NCCN(C)C)ccc3n2)CC1
  A: 93.1*; B: 97.6*; C: 21.4*; D: 7.6; E: -13.1; F: 0.7; G: -9.1%
SMILES: CCCCN(C)C(=S)Nc1ccc2nc(N3CCN(CC)CC3)cc(C)c2c1
  A: /; B: 47.6; C: -2.1; D: 2.8; E: /; F: 0.0; G: /
SMILES: Cc1cc(N2CCN(C)CC2)nc2ccc(NC(=S)NCCN3CCc4ccccc4C3)cc12
  A: 88.9*; B: 80.6*; C: -7.6; D: ?; E: -19.1; F: 0.0; G: 5.4%
SMILES: COc1ccc(C(=O)Nc2ccc3nc(N4CCN(C)CC4)cc(C)c3c2)c(OC)c1
  A: 51.0*; B: 31.4; C: -1.1; D: -11.1; E: -21.3; F: -0.2; G: 6.9%
SMILES: CCN1CCN(c2cc(C)c3cc(NC(=S)N(C)Cc4ccccc4)ccc3n2)CC1
  A: 17.8; B: 23.1; C: -1.4; D: 16.5; E: -20.5; F: 0.3; G: /
SMILES: COc1cccc(-c2cn(CC[C@H]3CC[C@@H](NC(=O)CC4CC4)[C@@H](CO)O3)nn2)c1
  A: 0.5; B: -6.2; C: 1.1; D: -0.2; E: -3.0; F: -0.4; G: /
SMILES: C[C@H](CO)N1C[C@H](C)[C@@H](CN(C)Cc2ccncc2)OCCCC[C@H](C)Oc2ccc(NC(=O)c3ccccc3)cc2C1=O
  A: -2.8; B: 18.7; C: -1.6; D: -0.2; E: -3.9; F: 0.1; G: /
SMILES: CCC(=O)Nc1ccc2c(c1)OC[C@H](C)N(C(=O)Cc1ccccn1)C[C@H](C)[C@H](OC)CN(C)C2=O
  A: 2.9; B: -5.5; C: 0.5; D: -3.3; E: -5.4; F: 0.0; G: /
SMILES: COCC(=O)Nc1ccc2c(c1)[C@@H]1C[C@H](CC(=O)NCC3CC3)O[C@H](CO)[C@@H]1O2
  A: -10.8; B: 0.9; C: -0.7; D: -0.4; E: -18.6; F: -0.5; G: /
SMILES: CCCC(=O)Nc1ccc2c(c1)C(=O)N(C)C[C@@H](OC)[C@H](C)CN(C(=O)CC)[C@@H](C)CO2
  A: /; B: /; C: /; D: /; E: /; F: -0.1; G: /
SMILES: CO[C@@H](CN(C)C(=O)c1cnccn1)[C@@H](C)CN([C@@H](C)CO)S(=O)(=O)c1ccc(C)cc1
  A: -0.9; B: -8.4; C: 4.5; D: -0.5; E: /; F: 0.0; G: /

Already shown: an excerpt of the list.
Screens by letter: A = RAD54 inh; B = RAD52 inh; C = SIRT5 inh; D = AF4-AF9 inh; E = UUG fidelity; F = E-sel inducer; G = DNA binding
SMILES: CCNC1CCC(Nc2ccnc3cc(Cl)ccc23)CC1 (stereo unspecified)
  A: 54.7*; B: 12.8; C: /; D: -9.8; E: -6.2; F: 0.0; G: -2.2%
SMILES: O=C(C[C@H]1C=C[C@H](NC(=O)c2ccc(F)cc2)[C@@H](CO)O1)NCc1ccncn1
  A: -16.5; B: -2.5; C: 0.6; D: -6.3; E: -23.3; F: 0.1; G: /
SMILES: COCCCNC(=O)c1cc2c(=O)n(C)c3ccccc3c2n1C
  A: 13.9; B: -21.0; C: /; D: 1.0; E: -7.8; F: /; G: /

High-throughput results: PubChem BioAssay, Broad Institute
